{"source": "patent US20100034739A1", "about": "“Fungus-Specific Imaging Agents” (priority 2006, published 2010)", "test_system": "Aspergillus fumigatus", "data": [{"substance": "^111In-DTPA-Benzyl-NH-Succinic Acid-CGGRLGPFC [imaging agent of FIG. 1]", "values": [{"measurement": "uptake of the imaging agent in the lung, infected versus uninfected control mice", "setting": "24 hours after injection, mice infected with Aspergillus fumigatus, FIG. 3A", "result": "higher uptake"}, {"measurement": "target-to-background ratio: imaging agent in lung tissue compared to blood or muscle, infected versus control mice", "setting": "24 hours post injection, pulmonary Aspergillus infection, FIG. 3B", "result": "much higher amounts"}]}]}
